Several values for one entry are separate records, joined by “and”; a condition that tells them apart may be missing. Identical values can stand only once. Like-named read-outs stand apart in the source and are kept apart here.
Columns and labels:
human IL-8 [1] = molecular target: T1, human IL-8 (Homo sapiens, UniProt P10145); test: Stability of human IL-8-neutralizing activity after storage in mouse plasma (human CXCR2-expressing cells); type: cell-based; settings: antibody 0.2 mg/mL in mouse plasma, 40° C., one and two weeks; human IL-8 2 nM
Description: Mouse plasma was collected from the blood of C57BL/6J (Charles River) by a method known to those skilled in the art. 200 μL of 200 mM PBS (Sigma, P4417) was added to 800 μL of mouse plasma to give 1 mL. Furthermore, sodium azide was added at a final concentration of 0.1% as an antiseptic. […] At this point, a portion of the sample was collected as the initial sample. The remaining sample was stored at 40° C. One week and two weeks after storage, a portion of each sample was collected, and they were used as the one-week-stored sample and the two-week-stored sample. All samples were frozen at −80° C. and stored until each analysis was performed.
Next, anti-IL-8 antibodies contained in mouse plasma were evaluated for their human IL-8-neutralizing activity as follows: CXCR1 and CXCR2 are known receptors for human IL-8. The PathHunter(registered trademark) CHO-K1 CXCR2 β-Arrestin cell line (DiscoveRx Co., Cat. #93-0202C2) expresses human CXCR2, and is a cell line artificially produced so as to emit chemiluminescence when human IL-8-mediated signals are transmitted. […]
Then, the above-mentioned cell line was used to examine whether the neutralizing activity of an antibody stored in mouse plasma was maintained. […] Next, a detection reagent was added according to the protocol of the product, and the relative chemiluminescence level was detected using a chemiluminescence detector. […]

Amino acid sequences for entries named in this document (tags omitted). Residues count along the entry.
UniProt P10145, 23-99 limits assumed: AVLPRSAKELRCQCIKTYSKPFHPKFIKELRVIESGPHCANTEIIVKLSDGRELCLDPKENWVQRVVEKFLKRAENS

human IL-8 [2] = molecular target: T1, human IL-8; test: Mouse PK assay: human IL-8 elimination after simultaneous administration of human IL-8 and anti-human IL-8 antibody; type: in vivo, mice (C57BL/6J); settings: C57BL/6J mice
Description: After simultaneous administration of human IL-8 and anti-human IL-8 antibodies to mice (C57BL/6J, Charles river), pharmacokinetics of human IL-8 were evaluated. A mixed solution of human IL-8 and an anti-human IL-8 antibody (10 μg/mL and 200 μg/mL, respectively) was administered in a single dose at 10 mL/kg to the tail vein. […] Blood was collected five minutes, two hours, four hours, seven hours, one day, two days, three days, seven days, 14 days, 21 days, and 28 days after the administration. The collected blood was immediately centrifuged at 15,000 rpm and 4° C. for 15 minutes to obtain plasma. The separated plasma was stored in a freezer set at −20° C. or below until measurements were taken.
The human IL-8 concentration in mouse plasma was determined by an electrochemiluminescence method. First, an anti-human IL-8 antibody (prepared in-house) having a mouse IgG constant region was dispensed into a MULTI-ARRAY 96-well Plate (Meso Scale Discovery), and was allowed to stand at room temperature for one hour. Then, a PBS-Tween solution containing 5% BSA (w/v) was used for blocking at room temperature for two hours to prepare an anti-human IL-8 antibody-immobilized plate. […] Subsequently, 50 μL of the mixed solutions were dispensed into each well of the anti-human IL-8 antibody-immobilized plate, and the solution was stirred at room temperature for one hour. […] Then, after one hour of reaction with a Biotin Mouse Anti-Human Igκ Light Chain (BD Pharmingen) at room temperature, and then one hour of reaction with SULFO-TAG Labeled Streptavidin (Meso Scale Discovery) at room temperature, Read Buffer T (×1) (Meso Scale Discovery) was dispensed, and measurements were performed immediately with SECTOR Imager 2400 (Meso Scale Discovery). The human IL-8 concentration was calculated based on the response in the calibration curve using the analytical software, SOFT Max PRO (Molecular Devices).
Administration to mice and blood collection, and measurement of the human IL-8 concentration in mouse plasma were carried out by the method shown in Example 7.

human IL-8 [3] = molecular target: T1, human IL-8; test: Mouse PK assay with increased dose of antibody (2 mg/kg or 8 mg/kg); type: in vivo, mice (C57BL/6J); settings: C57BL/6J mice
Description: A mixed solution of human IL-8 (2.5 μg/mL) and an anti-human IL-8 antibody (200 μg/mL or 800 μg/mL) was administered to the tail vein in a single dose of 10 mL/kg. At this time, since a sufficiently excessive amount of the anti-human IL-8 antibody is present compared to human IL-8, almost all of the human IL-8 are considered to be bound to the antibody. Blood was collected five minutes, seven hours, one day, two days, three days, seven days, 14 days, 21 days, and 28 days after the administration. The collected blood was immediately centrifuged at 15,000 rpm and 4° C. for 15 minutes to obtain plasma. The separated plasma was stored in a freezer set at −20° C. or below until measurements were taken.
Measurement of the human IL-8 concentration in mouse plasma was carried out by a method similar to that of Example 7-2. The resulting data on the human IL-8 concentration in plasma is shown in FIG. 16, and the values for human IL-8 clearance (CL) from mouse plasma are shown in Table 9.
The resulting data on the human IL-8 concentration in plasma is shown in FIG. 17, and the values of human IL-8 clearance (CL) from mouse plasma are shown in Table 11.

human IL-8 [4] = molecular target: T1, human IL-8; type: binding
Description: The following two running buffers were used: • 0.05% tween 20, 20 mM ACES, 150 mM NaCl, pH 7.4; • 0.05% tween 20, 20 mM ACES, 150 mM NaCl, pH 5.8.
An appropriate amount of Protein A/G (PIERCE) was immobilized onto Sensor chip CM4 (GE Healthcare) by the amine coupling method and the antibodies of interest was captured. Next, human IL-8 was made to interact with the antibodies captured on the sensor chip by injecting a diluted human IL-8 solution and a running buffer (used as a reference solution). For the running buffer, any of the above-mentioned solutions was used, and the respective buffers were also used to dilute human IL-8. To regenerate the sensor chip, 10 mM glycine-HCl at pH 1.5 was used. All measurements were carried out at 37° C. KD (M) of each antibody for human IL-8 was calculated based on the association rate constant kon (1/Ms) and dissociation rate constant koff (1/s), which are kinetic parameters calculated from sensorgrams obtained by the measurements. The BIACORE T200 Evaluation Software (GE Healthcare) was used to calculate each parameter.

[5] = human IL-8 10 μg/mL + antibody 200 μg/mL, single dose 10 mL/kg tail vein

Row | Molecule | human IL-8-neutralizing activity before and after storage in mouse plasma (human IL-8 [1]) | increase of rate of human IL-8 elimination (CL) as compared to H998/L63 (human IL-8 [2]; antibody 2 mg/kg) | Human IL-8 CL (mL/d/kg), Average (N = 3) (human IL-8 [2]; [5]) [mL/day/kg] | Human IL-8 CL (mL/d/kg), individual mice #1-#3 (human IL-8 [2]; [5]) | slower rate of human IL-8 elimination at 8 mg/kg compared to 2 mg/kg (human IL-8 [3]) | Human IL-8 CL (mL/d/kg), Average (N = 3) (human IL-8 [3]; Antibody Dose 2 mg/kg) [mL/day/kg] | Human IL-8 CL (mL/d/kg), Average (N = 3) (human IL-8 [3]; Antibody Dose 8 mg/kg) [mL/day/kg] | koff (human IL-8 [4]; pH 5.8) [s⁻¹] | kon (human IL-8 [4]; pH 5.8) [M⁻¹ s⁻¹] | koff (human IL-8 [4]; pH 7.4) [s⁻¹] | kon (human IL-8 [4]; pH 7.4) [M⁻¹ s⁻¹]
1 | H89/L118: pH-dependent anti-IL-8 antibody, H89-IgG1 heavy chain, L118-kOMT (SEQ ID NO:44) light chain (antibody) heavy: QVQLVESGGGLVQPGGSLRLSCAASGFTFSDYYLSWVRQAPGKGLEWVGLIRNKANGYTREYSASVKGRFTISRDDSKNSLYLQMSSLKTEDTAVYYCARENHRYDVELAYWGQGTLVTVSSASTKGPSVFPLAPSSKSTSGGTAALGCLVKDYFPEPVTVSWNSGALTSGVHTFPAVLQSSGLYSLSSVVTVPSSSLGTQTYICNVNHKPSNTKVDKKV[human IgG1 Fc skipped] light: DIQMTQSPSSLSASVGDRVTITCRASEIIYSYLAWYQQKPGKAPKLLIYHAKTHADGVPSRFSGSGSGTDFTFTISSLQPEDIATYYCKHHFGFPRTFGQGTKVEIKRTVAAPSVFIFPPSDEQLKSGTASVVCLLNNFYPREAKVQWKVDNALQSGNSQESVTEQDSKDSTYSLSSTLTLSKADYEKHKVYACEVTHQGLSSPVTKSFNRGEC | differences in the human IL-8-neutralizing activity before and after storage in mouse plasma were not observed | about 19 fold | 465.1 | 472.2 mL/day/kg and 447.2 mL/day/kg and 476.0 mL/day/kg | approximately 2 fold | 221.8 | 103.0 |  |  |  | 
2 | Hr9/L16: Hr9 variant, light chain mutation L54H (antibody) heavy: QVQLVESGGGLVQPGGSLRLSCAASGFTFSDYYLSWVRQAPGKGLEWVGLIRNKANGYTREYSASVKGRFTISRDDSKNSLYLQMSSLKTEDTAVYYCARENYRYDVELAYWGQGTLVTVSSASTKGPSVFPLAPSSKSTSGGTAALGCLVKDYFPEPVTVSWNSGALTSGVHTFPAVLQSSGLYSLSSVVTVPSSSLGTQTYICNVNHKPSNTKVDKKV[human IgG1 Fc skipped] light: DIQMTQSPSSLSASVGDRVTITCRASEIIYSYLAWYQQKPGKAPKLLIYNAKTHADGVPSRFSGSGSGTDFTFTISSLQPEDIATYYCQHHFGFPRTFGQGTKVEIKRTVAAPSVFIFPPSDEQLKSGTASVVCLLNNFYPREAKVQWKVDNALQSGNSQESVTEQDSKDSTYSLSSTLTLSKADYEKHKVYACEVTHQGLSSPVTKSFNRGEC |  |  |  |  |  |  |  | 0.000197 | 39100 | 9.57e-05 | 890000
3 | Hr9: humanized anti-human IL-8 antibody, Hr9-IgG1 (SEQ ID NO:41) heavy chain, hWS4L-kOMT light chain (antibody) heavy: QVQLVESGGGLVQPGGSLRLSCAASGFTFSDYYLSWVRQAPGKGLEWVGLIRNKANGYTREYSASVKGRFTISRDDSKNSLYLQMSSLKTEDTAVYYCARENYRYDVELAYWGQGTLVTVSSASTKGPSVFPLAPSSKSTSGGTAALGCLVKDYFPEPVTVSWNSGALTSGVHTFPAVLQSSGLYSLSSVVTVPSSSLGTQTYICNVNHKPSNTKVDKKV[human IgG1 Fc skipped] light: DIQMTQSPSSLSASVGDRVTITCRASEIIYSYLAWYQQKPGKAPKLLIYNAKTLADGVPSRFSGSGSGTDFTFTISSLQPEDIATYYCQHHFGFPRTFGQGTKVEIKRTVAAPSVFIFPPSDEQLKSGTASVVCLLNNFYPREAKVQWKVDNALQSGNSQESVTEQDSKDSTYSLSSTLTLSKADYEKHKVYACEVTHQGLSSPVTKSFNRGEC | differences in the human IL-8-neutralizing activity before and after storage in mouse plasma were not observed |  |  |  |  |  |  |  |  |  | 

Reference: patent US20210301011A1, “COMPOSITION FOR PROPHYLAXIS OR TREATMENT OF IL-8 RELATED DISEASES” (CHUGAI SEIYAKU KABUSHIKI KAISHA, priority 2016, published 2021)
